The text below walks through data of patent US20240066045A1, “SEMICARBAZONE-BASED SAPONIN CONJUGATE” (priority 2020, published 2024).

Common to all, as to type: cell-based
Assay [1] has as its system HSP27 mRNA in A431 cells. Nature of the assay: HSP27 gene silencing (HSP27 mRNA expression, qPCR). As to conditions: A431 (EGFR++/HER2+/−); conjugate titrated + 50 pM Trastuzumab-HSP27BNA; read-out: IC50 targeted HSP27 gene silencing. The source says:
RNA from cells was isolated and analysed according to standard protocols (Biorad).
(In qPCR the cycle at which signal appears reflects the starting amount.)

For assay [2], the system named is HeLa cells (EGFR+/−/CD71+). Nature of the assay: EGFR/CD71 targeted cell killing: antibody-saponin conjugate titrated on 10 pM CD71mab-saporin. How it is done:
Cell viability was determined by an MTS-assay, performed according to the manufacturer's instruction (CellTiter 96® AQueous One Solution Cell Proliferation Assay, Promega). Briefly, the MTS solution was diluted 20× in DMEM without phenol red (PAN-Biotech GmbH) supplemented with 10% FBS (PAN-Biotech GmbH). The cells were washed once with 200 μL PBS per well, after which 100 μL diluted MTS solution was added per well. The plate was incubated for approximately 20-30 minutes at 37° C. Subsequently, the optical density at 492 nm was measured on a Thermo Scientific Multiskan FC plate reader (Thermo Scientific).
When EGFR expression is absent (in A2058 cells), effective SO1861 concentrations are not reached (i.e., below threshold) to induce endosomal escape and cytoplasmic delivery of the protein toxin.

Assay [3] relates to SK-BR-3 cells (HER2++/CD71+). Nature of the assay: HER2/CD71 targeted cell killing: antibody-saponin conjugate titrated on 10 pM CD71mab-saporin.

“Cetuximab-(SC-SO1861)^4: SO1861-SC-Mal conjugated via cysteine residues to Cetuximab, DAR 4”: the IC50 came out at 0.5 nM in assay [1] and 500 nM in assay [2]. In the case of “Trastuzumab-(SC-SO1861)^4: SO1861-SC-Mal conjugated via cysteine residues to Trastuzumab, DAR 4”, the “activity improved compared to Trastuzumab-(EMCH-SO1861)^4” value in assay [3] is 5 fold. Turning to “Cetuximab-(EMCH-SO1861)^4: SO1861-EMCH conjugated to Cetuximab at DAR 4 [reference compound]”, the IC50 in assay [1] is 0.5 nM.

As usually defined, the IC50 is the concentration that gives 50% inhibition.
